# Values of other authors, collected in paper PMC10955127 (Frontiers in Pharmacology, 2024).
# Conditions: highest dose tested; in vivo 2019-2020, KS1; cited from earlier work
smiles,measurement,value
"O=C(OCc1ccccc1)c1ccccc1O [BSal, benzyl salicylate]",Developmental Toxicity NOAEL,NOAEL 158-324 mg/kg bw (highest dose tested)
same,Reproductive toxicity NOAEL,NOAEL 158-324 mg/kg bw (highest dose tested)
